# Calls of active or inactive are those of the source. The rule behind the calls is not given here.
# Species: Homo sapiens
row,SMILES,Log EC50
1,Oc1cc(CC2=NCCN2)cc(F)c1O,inactive
2,Oc1ccc(CC2=NCCN2)c(F)c1O,inactive
3,Oc1ccc(CC2=NCCN2)cc1O,Not activity
4,Oc1ccc(C[C@H]2CNC=N2)cc1O,Not activity
5,Cl.Oc1ccc(Cc2ncc[nH]2)cc1O,inactive
6,Oc1cc(F)c(CC2=NCCN2)cc1O,inactive

# Species: Homo sapiens
# Remark: another data set of the same source
row,Log EC50,SMILES
1,Not activity,Oc1ccc(CC2CNC=N2)cc1O (racemic)

# From ChEMBL document CHEMBL1124737, “Synthesis and alpha 2-adrenoceptor effects of substituted catecholimidazoline and catecholimidazole analogues in human platelets” (J Med Chem, 1990)
